Biological target: T1, CYP27A1 (Homo sapiens, UniProt Q02318)
T1 sequence (Q02318 34-531): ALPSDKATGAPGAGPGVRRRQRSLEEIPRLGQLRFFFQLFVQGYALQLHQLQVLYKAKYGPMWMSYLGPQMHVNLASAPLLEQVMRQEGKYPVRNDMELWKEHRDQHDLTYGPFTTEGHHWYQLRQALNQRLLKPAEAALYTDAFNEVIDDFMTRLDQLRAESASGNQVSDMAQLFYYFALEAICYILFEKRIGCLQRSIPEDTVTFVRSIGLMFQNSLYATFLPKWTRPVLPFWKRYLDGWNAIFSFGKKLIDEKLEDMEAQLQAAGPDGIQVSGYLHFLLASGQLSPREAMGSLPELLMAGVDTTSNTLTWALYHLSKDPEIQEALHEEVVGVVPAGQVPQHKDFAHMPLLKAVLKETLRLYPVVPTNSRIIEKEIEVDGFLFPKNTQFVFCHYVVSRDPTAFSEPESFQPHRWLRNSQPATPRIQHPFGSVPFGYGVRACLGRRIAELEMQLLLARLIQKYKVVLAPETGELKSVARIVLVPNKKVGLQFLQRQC
Test: CYP27A1 enzyme assay
Type: biochemical

IC50: > 1000 nM
Compound: C=C1/C(=C\C=C2/CCC[C@]3(C)[C@@H]([C@H](C)CCS(=N)(=O)c4ccccc4)CC[C@@H]23)C[C@@H](O)C[C@@H]1O (single isomer, unassigned) [I(a)]
